We go through one compound from the SangsterLogP compilation.

The term logP denotes the decadic logarithm of the partition coefficient of the neutral form, usually between octanol and water. Low values mean lower lipophilicity, high ones higher lipophilicity. In the case of `CC(C)c1nc(CN(C)C(=O)N[C@H](C(=O)N[C@@H](Cc2ccccc2)C[C@H](O)[C@H](Cc2ccccc2)NC(=O)OCc2cncs2)C(C)C)cs1`, the logP was determined as 3.9.
